Source: patent US7364881B1, “Biological process for the conversion of nitroarenes to ortho-aminophenols using recombinant E. coli strains” (dated 2008)

The chains behind the UniProt entries cited, without tags or fusion partners. Where a name states a change or a piece, a line headed by the entry shows the natural chain unless it says otherwise. Residues count along the entry.
UniProt Q6DLR9, 2-227 limits assumed: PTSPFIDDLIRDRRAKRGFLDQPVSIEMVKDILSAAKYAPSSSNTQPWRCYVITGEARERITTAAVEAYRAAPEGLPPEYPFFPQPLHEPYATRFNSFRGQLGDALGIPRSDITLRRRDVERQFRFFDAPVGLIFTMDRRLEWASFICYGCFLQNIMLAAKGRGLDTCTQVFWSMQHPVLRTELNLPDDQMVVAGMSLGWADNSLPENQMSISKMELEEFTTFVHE
UniProt Q01234: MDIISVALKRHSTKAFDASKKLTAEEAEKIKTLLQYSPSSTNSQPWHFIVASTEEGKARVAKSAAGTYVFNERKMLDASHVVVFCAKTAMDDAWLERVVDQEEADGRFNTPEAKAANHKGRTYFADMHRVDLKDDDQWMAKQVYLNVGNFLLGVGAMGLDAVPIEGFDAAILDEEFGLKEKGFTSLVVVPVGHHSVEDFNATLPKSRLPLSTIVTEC

Columns and labels:
NB nitroreductase (NbzA) [1] = target: T1, NB nitroreductase (NbzA) (Ectopseudomonas oleovorans, UniProt Q6DLR9); test: Reductase activity in cell extracts (initial rate of NADPH disappearance), NbzA expressed in E. coli JS995; settings: averages of duplicates, deviation <10%
[2] = target: E. cloacae nitroreductase (Nfs1) (Enterobacter cloacae, UniProt Q01234); test: Reductase activity in cell extracts (initial rate of NADPH disappearance), Nfs1 expressed in E. coli JS996; settings: averages of duplicates, deviation <10%
[3] = test system: whole cells of E. coli strain JS996; test: Whole-cell biotransformation by strain JS996; settings: for Rate of substrate transformation: resting IPTG-induced JS996 cells, A600 2, pH 7.0, 37° C., initial 10 min of reaction
[4] = test system: host strains carrying only the vectors; test: Nitroreductase activity in extracts of host strains carrying only the vectors; settings: for Nitroreductase activity in extracts of induced host strains carrying only the vectors: induced cells of host strains
[5] = test system: whole cells of E. coli strain JS995; test: Whole-cell biotransformation by strain JS995
NB nitroreductase (NbzA) [6] = target: T1, NB nitroreductase (NbzA); settings: wild-type JS45, NB as the substrate; cited from earlier work
[7] = Stability of the aminophenol in solution; settings: neutral solution at 4° C.
[8] = strain JS996, 30° C., 100 μM NB, pH 8, 1% glucose, initial 10 min
[9] = strain JS995, 30° C., 100 μM NB, pH 8, 1% glucose, initial 10 min

Molecule	Specific activity of recombinant nitroreductase NbzA in cell extracts (NB nitroreductase (NbzA) [1])	Specific activity of recombinant nitroreductase Nfs1 in cell extracts [2]	further results
O=C(O)c1cccc([N+](=O)[O-])c1	0.3 μmol of NADPH oxidized min^−1 mg^−1 protein	0.1 μmol of NADPH oxidized min^−1 mg^−1 protein	–
Cc1ccc([N+](=O)[O-])cc1	0.1 μmol of NADPH oxidized min^−1 mg^−1 protein	<0.1 μmol of NADPH oxidized min^−1 mg^−1 protein	–
Cc1ccccc1[N+](=O)[O-]	1.4 μmol of NADPH oxidized min^−1 mg^−1 protein	<0.1 μmol of NADPH oxidized min^−1 mg^−1 protein	Rate of substrate transformation [3]: 0.47 nmol min^−1 mg^−1 protein
O=[N+]([O-])c1cccc2ccccc12	–	–	Rate of substrate transformation [3]: 0.93 nmol min^−1 mg^−1 protein
O=C(O)c1ccccc1[N+](=O)[O-]	0.3 μmol of NADPH oxidized min^−1 mg^−1 protein	<0.1 μmol of NADPH oxidized min^−1 mg^−1 protein	–
O=Cc1cccc([N+](=O)[O-])c1	2.0 μmol of NADPH oxidized min^−1 mg^−1 protein	0.3 μmol of NADPH oxidized min^−1 mg^−1 protein	–
O=[N+]([O-])c1ccccc1	2.5 μmol of NADPH oxidized min^−1 mg^−1 protein	0.1 μmol of NADPH oxidized min^−1 mg^−1 protein	Nitroreductase activity in extracts of induced host strains carrying only the vectors [4]: No nitroreductase activity; Rate of substrate transformation [3]: 2.0 nmol min^−1 mg^−1 protein; Specific activity for transformation of NB [3, 8]: 5.4 nmol min^−1 mg^−1 protein; Specific activity for transformation of NB [5, 9]: 13.4 nmol min^−1 mg^−1 protein; Specific activity of NB nitroreductase reported previously (NB nitroreductase (NbzA) [6]): 2.4 U mg^−1 protein
O=C(C[N+](=O)[O-])c1ccccc1	1.6 μmol of NADPH oxidized min^−1 mg^−1 protein	0.1 μmol of NADPH oxidized min^−1 mg^−1 protein	Nitroreductase activity in extracts of induced host strains carrying only the vectors [4]: No nitroreductase activity; Transformation rate ([5]; strain JS995, absence of glucose): very low; Added substrate transformed ([5]; strain JS995, absence of glucose, end of 110 min of incubation): 50; Specific activity for the transformation of 2NAP ([5]; strain JS995, presence of glucose, initial 10 min of reaction): 17.6 nmol min^−1 mg^−1 protein
O=[N+]([O-])c1cccc([N+](=O)[O-])c1	2.9 μmol of NADPH oxidized min^−1 mg^−1 protein	5.1 μmol of NADPH oxidized min^−1 mg^−1 protein	Nitroreductase activity in the control host strain containing vector alone ([4]; control host strain, vector alone): 0.10 U mg^−1 protein
3-Nitroacetophenone	2.1 μmol of NADPH oxidized min^−1 mg^−1 protein	0.2 μmol of NADPH oxidized min^−1 mg^−1 protein	Transformation of 3NAP to a single product ([5]; strain JS995 whole cells, pH 8.0, 1% glucose, FIG. 2b): very rapidly
O=C(O)c1ccc([N+](=O)[O-])cc1	0.7 μmol of NADPH oxidized min^−1 mg^−1 protein	0.1 μmol of NADPH oxidized min^−1 mg^−1 protein	–
O=Cc1ccc([N+](=O)[O-])cc1	0.1 μmol of NADPH oxidized min^−1 mg^−1 protein	<0.1 μmol of NADPH oxidized min^−1 mg^−1 protein	–
Nc1ccccc1O	–	–	Specific activity for production of 2AP [3, 8]: 5.0 nmol min^−1 mg^−1 protein; Specific activity for production of 2AP [5, 9]: 12.5 nmol min^−1 mg^−1 protein
Cc1cccc([N+](=O)[O-])c1	1.9 μmol of NADPH oxidized min^−1 mg^−1 protein	0.1 μmol of NADPH oxidized min^−1 mg^−1 protein	Rate of substrate transformation [3]: 1.62 nmol min^−1 mg^−1 protein
4-Nitrobiphenyl ether	0.8 μmol of NADPH oxidized min^−1 mg^−1 protein	0.2 μmol of NADPH oxidized min^−1 mg^−1 protein	Rate of substrate transformation [3]: 1.13 nmol min^−1 mg^−1 protein
2-Amino-3-hydroxyacetophenone	–	–	Stability in solution (time stable) [7]: more than 8 months
O=Cc1ccccc1[N+](=O)[O-]	2.3 μmol of NADPH oxidized min^−1 mg^−1 protein	0.7 μmol of NADPH oxidized min^−1 mg^−1 protein	–
4-Nitroacetophenone	1.7 μmol of NADPH oxidized min^−1 mg^−1 protein	0.9 μmol of NADPH oxidized min^−1 mg^−1 protein	–
